Earlier results, collected in PMC8915595, “Revisiting the application of Immobilized Artificial Membrane (IAM) chromatography to estimate in vivo distribution properties of drug discovery compounds based on the model of marketed drugs” (ADMET & DMPK, 2020).

By UniProt entry, the sequences of proteins in these tests, tags left out. Residues count along the entry.
UniProt P02768, 25-609: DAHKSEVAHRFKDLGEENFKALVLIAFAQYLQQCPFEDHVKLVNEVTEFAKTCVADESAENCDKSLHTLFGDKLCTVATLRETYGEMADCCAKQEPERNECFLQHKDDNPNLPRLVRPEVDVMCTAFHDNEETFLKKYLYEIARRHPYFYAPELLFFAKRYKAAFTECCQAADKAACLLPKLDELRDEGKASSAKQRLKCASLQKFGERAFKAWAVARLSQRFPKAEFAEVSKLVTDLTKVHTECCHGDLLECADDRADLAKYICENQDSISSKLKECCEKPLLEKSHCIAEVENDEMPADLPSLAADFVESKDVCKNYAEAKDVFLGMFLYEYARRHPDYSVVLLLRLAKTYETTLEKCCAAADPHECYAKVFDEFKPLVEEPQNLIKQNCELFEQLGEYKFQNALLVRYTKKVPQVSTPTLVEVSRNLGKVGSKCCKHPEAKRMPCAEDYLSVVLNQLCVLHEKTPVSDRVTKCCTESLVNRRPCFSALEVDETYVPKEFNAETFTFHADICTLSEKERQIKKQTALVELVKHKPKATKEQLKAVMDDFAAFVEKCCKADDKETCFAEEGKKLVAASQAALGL

Target: human serum albumin (HSA) (Homo sapiens, UniProt P02768)
Details: cited from earlier work

CC(=O)Nc1nnc(S(N)(=O)=O)s1 [Acetazolamide]
log K HSA from ref [13]: 1.47
